Target: Carbonic anhydrase (Saccharomyces cerevisiae S288c, UniProt P53615)
Test: Inhibition of Saccharomyces cerevisiae carbonic anhydrase overexpressed in Escherichia coli BL21 (DE3) by CO2 hydration stopped-flow assay

Protein sequences, listed by entry. Tags and fused reporters are not part of them. Lines headed by an entry give the natural chain unless they say otherwise; changes in a name come on top.
UniProt P53615: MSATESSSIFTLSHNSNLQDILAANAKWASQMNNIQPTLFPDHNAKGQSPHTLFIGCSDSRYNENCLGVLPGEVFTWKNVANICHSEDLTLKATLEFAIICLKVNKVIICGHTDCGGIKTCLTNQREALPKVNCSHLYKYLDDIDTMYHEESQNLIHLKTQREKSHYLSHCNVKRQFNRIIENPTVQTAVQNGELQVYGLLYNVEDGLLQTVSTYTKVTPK

In the case of `O=[As](O)(O)c1ccccc1`, the Ki is reported as 40 µM.

Source: ChEMBL document CHEMBL1152192, “Carbonic anhydrase inhibitors. Inhibition of the beta-class enzyme from the yeast Saccharomyces cerevisiae with anions” (Bioorg Med Chem Lett, 2008)
